PubChem BioAssay AID720631 (The Scripps Research Institute Molecular Screening Center, 2013)
This is a selection; strong and weak results do not stand in their true shares. Activity calls are given as the source filed them.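 Rule for the calls: active = inhibition above the mean of compounds lying within the control limits plus 3 SD (cut at about 16% in these data); inactive = the rest.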

Sequences of proteins named here, by UniProt entry; tags and fusion partners are left off. A change or cut given only in a name is not applied to a line headed by its entry.
UniProt P02675: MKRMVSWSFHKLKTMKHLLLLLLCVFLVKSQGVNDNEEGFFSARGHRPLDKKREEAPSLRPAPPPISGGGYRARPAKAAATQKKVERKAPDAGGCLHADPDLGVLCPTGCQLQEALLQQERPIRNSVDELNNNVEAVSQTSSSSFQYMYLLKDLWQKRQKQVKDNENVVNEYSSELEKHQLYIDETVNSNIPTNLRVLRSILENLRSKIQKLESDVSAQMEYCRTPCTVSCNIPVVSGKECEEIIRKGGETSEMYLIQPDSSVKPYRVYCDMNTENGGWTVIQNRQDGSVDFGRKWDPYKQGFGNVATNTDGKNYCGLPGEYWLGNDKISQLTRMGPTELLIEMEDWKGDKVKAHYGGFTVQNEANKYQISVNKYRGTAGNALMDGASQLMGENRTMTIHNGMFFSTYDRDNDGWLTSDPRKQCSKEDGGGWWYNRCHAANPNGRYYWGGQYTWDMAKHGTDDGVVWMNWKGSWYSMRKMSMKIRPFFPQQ

Biological target: Fibrinogen beta chain (Homo sapiens) (UniProt P02675)
Test: inhibitors of Tn6 peptide binding to fibrin DD(E), confirmation, biochemical, fluorescence polarization, human fibrin, Tn6 probe (AID 720631);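 note: 0% = plate median of compound wells and 100% = inhibitor peptide control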
Conditions: FP displacement of TRITC-Tn6 peptide from DD(E); at 8.3 µM; stronger effect = higher value; 0% = per-plate median of test wells

Nc1cccc2c([As](=O)(O)O)cccc12
inhibition: inactive: 15%
